Laboratory results from PMC8224972, “Thiazide and other Cl-benzenesulfonamide-bearing clinical drug affinities for human carbonic anhydrases” (PLoS ONE, 2021).

By UniProt entry, the sequences of proteins in these tests, tags left out. Where a name states a change or a piece, a line headed by the entry shows the natural chain unless it says otherwise. Residues count along the entry.
UniProt O43570, 25-354: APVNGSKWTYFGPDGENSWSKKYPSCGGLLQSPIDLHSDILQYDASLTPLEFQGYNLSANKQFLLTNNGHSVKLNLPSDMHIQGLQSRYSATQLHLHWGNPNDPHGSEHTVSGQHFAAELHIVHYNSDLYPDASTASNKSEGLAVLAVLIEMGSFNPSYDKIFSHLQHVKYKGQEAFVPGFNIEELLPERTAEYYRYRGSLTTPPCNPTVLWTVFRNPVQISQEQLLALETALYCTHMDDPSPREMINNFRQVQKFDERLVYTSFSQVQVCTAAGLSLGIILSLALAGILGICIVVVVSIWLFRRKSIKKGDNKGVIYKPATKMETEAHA
UniProt P43166: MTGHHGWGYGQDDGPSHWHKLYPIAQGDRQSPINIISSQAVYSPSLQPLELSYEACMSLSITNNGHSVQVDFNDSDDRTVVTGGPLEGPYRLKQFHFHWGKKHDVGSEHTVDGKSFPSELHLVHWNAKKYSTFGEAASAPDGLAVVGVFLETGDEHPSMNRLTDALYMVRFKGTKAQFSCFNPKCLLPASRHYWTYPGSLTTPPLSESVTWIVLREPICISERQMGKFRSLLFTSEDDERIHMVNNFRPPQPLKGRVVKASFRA
UniProt P35218, 39-305: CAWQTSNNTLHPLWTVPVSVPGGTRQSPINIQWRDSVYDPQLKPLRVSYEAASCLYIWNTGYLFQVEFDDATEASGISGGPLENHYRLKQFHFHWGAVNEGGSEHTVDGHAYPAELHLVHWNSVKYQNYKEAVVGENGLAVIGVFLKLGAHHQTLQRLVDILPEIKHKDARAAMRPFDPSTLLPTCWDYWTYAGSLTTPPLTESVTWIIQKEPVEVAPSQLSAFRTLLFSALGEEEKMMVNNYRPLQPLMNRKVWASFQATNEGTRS

Columns and labels:
Assay in all cases: Fluorescence-based thermal shift assay (FTSA)
CA XII = CA XII (Homo sapiens, UniProt O43570)
CA VII = CA VII (Homo sapiens, UniProt P43166)
CA VA = CA VA (Homo sapiens, UniProt P35218)

Row | SMILES | Kd (CA XII) [nM] | Kd (CA VII) [nM] | Kd (CA VA) [nM]
1 | NS(=O)(=O)c1cc(Cl)c(Cl)c(S(N)(=O)=O)c1 [Compound 2, Dichlorphenamide] | 3.4 | 0.46 | 
2 | NS(=O)(=O)c1cc(C(=O)O)c(NCc2ccco2)cc1Cl [Compound 15, Furosemide] |  | 620 | > 200000
